Antibody variant affinities, Ab-14 heavy chain, assay B

The target is the same throughout: PDVDLGDISGINAS, from the HR2 region of SARS-CoV-2 spike.

The variants keep the light chain, the linker and the frameworks of Ab-14 (scFv order VH, three GGGGS repeats, VL).
VH: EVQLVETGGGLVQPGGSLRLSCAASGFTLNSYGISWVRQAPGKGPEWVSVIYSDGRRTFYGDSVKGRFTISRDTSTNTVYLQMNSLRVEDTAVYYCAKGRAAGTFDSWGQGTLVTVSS
VL: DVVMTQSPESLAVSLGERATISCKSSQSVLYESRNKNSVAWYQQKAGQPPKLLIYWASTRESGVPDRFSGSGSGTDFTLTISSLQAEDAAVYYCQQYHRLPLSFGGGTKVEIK

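Phage display of a naive human antibody library on the peptide gave the parent. Designed CDR sequences, proposed from the first random library and measured here. Group labels follow the data file (Ctrl: baseline library sampled from a position-specific scoring matrix, with some repeated check sequences; Rand: our label for a block that the file lists under HC and that is probably the random mutants of the ten best first-round binders; En: ensemble of fine-tuned language models; GP: Gaussian process model; GPLM: also part of the Gaussian process libraries; HC: hill climbing; Gen: genetic algorithm; Gibbs: Gibbs sampling; a sequence that several methods proposed may carry one label only). AlphaSeq pools MATa yeast showing the antibodies with MATalpha yeast showing the peptide. The frequency of each diploid, read from paired DNA barcodes, reflects how well the two displayed proteins bind. Read counts were normalised to the haploid input and turned into Kd by a linear fit to BCL2-family pairs of known affinity, for each replicate. Each pool was mated in six replicate cultures.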

Variants are written as CDR1, CDR2 and CDR3 of the heavy chain (limits as in the source). Parent: GFTLNSYGIS, VIYSDGRRTFYGDSVK, GRAAGTFDS.
Values are log10 of the apparent Kd in nM; lower means stronger binding.
Replicates are averaged; those with no signal do not enter the mean.
An entry "nd" has no value in the source: the pair was not observed among the diploids in any replicate. This suggests poor binding but is not conclusive.
Nonspecific signal, from three strains lacking the peptide, appeared in 1% of pairings of all heavy chain designs, centred on 2.08 (5% of these signals below 0.84); values are not corrected for it. The control count says in how many pairings with the empty strains this scFv gave a signal.
The authors' rule: three or more of the six replicates give a measured affinity, fewer mean a poor binder.
The parent sequence was in this pool as ten entries: three were never detected, three once, and four in most replicates, with averages from 0.34 to 2.37.
The range of this assay differs from that of the first round, and the authors advise against merging the two.

Variant GKDLDEYGIS, VIYADGKRTAYVENVK, GQFGGTLLD [En_Gibbs] showed 0.39 (2 of 6 replicates; controls 0 of 18).
Variant GFTLNDYGIS, VIYADGRRTFYGDSVK, GQAAGTFIS [GPLM_HC] showed 1.23 (5 of 6 replicates; controls 0 of 18).
Variant GFTLNSYGIS, VIYSDGRRTAYGQSVK, GRQAGTFDS [Ctrl] showed nd (0 of 6 replicates; controls 0 of 18).
Variant KFELNSYGIS, VIYADGRRTFYGDSVK, GQAAGTFDS [GP_Gen] showed 1.04 (5 of 6 replicates; controls 0 of 18).
Variant GFNLNSYGIS, VIYSDGRRTFYADSVK, GREAGTFDS [GPLM_Gen] showed 0.13 (6 of 6 replicates; controls 0 of 18).
Variant GFDLNEYGIS, VIYADGRRTFYADSVK, GNEAGTFDI [En_HC] showed 0.50 (6 of 6 replicates; controls 0 of 18).
Variant MFTLNSYGIS, VIYSDGRRTFYGDSVK, GHVAGTFDT [GP_Gibbs] showed 2.42 (6 of 6 replicates; controls 0 of 18).
Variant GFDLNEYGIS, VIYADGMRTFYSDSVK, GETAGTFDV [En_Gen] showed 0.62 (6 of 6 replicates; controls 0 of 18).
Variant GFELNDYGIS, VIYSDGRRTFYGDSVK, GKEAGTFDT [GP_Gibbs] showed 3.21 (2 of 6 replicates; controls 0 of 18).
Variant GYDIEQYGIS, VIYADGIRTVYHDSVK, GHNGDTFYV [En_Gibbs] showed 4.36 (1 of 6 replicates; controls 1 of 18).
Variant GFTLDSYGIS, VIYSDGRRTFYGDSVK, GRAAGTKLS [Rand] showed nd (0 of 6 replicates; controls 0 of 18).
Variant GFDLEDYGIS, VIYADGQRTAYADSVK, GNNAGTFDV [En_Gen] showed -0.22 (6 of 6 replicates; controls 0 of 18).
Variant KFTLNSYGIS, VIYSDGRRTFYDDSVK, GQVAGTFDS [GPLM_HC] showed 0.86 (5 of 6 replicates; controls 0 of 18).
Variant GFTLNQYGIS, VIYSDGRRTFYGDDVK, GRAAGTFDQ [Ctrl] showed 1.22 (2 of 6 replicates; controls 0 of 18).
Variant GFDLNSYGIS, VIYSDGRRTAYGDAVK, GRTAGTFDS [GP_Gen] showed -0.02 (5 of 6 replicates; controls 0 of 18).
Variant GFDLNEYGIS, VIYADGMRKAYADSVK, GNQAGTFDI [En_Gen] showed -0.79 (6 of 6 replicates; controls 0 of 18).
Variant GFTLNSYGIS, VIYSDGRRTFYYDSVK, GRAAGTFDC [Ctrl] showed nd (0 of 6 replicates; controls 0 of 18).
Variant GFNLDEYGIS, VIYADGKRSAYANKVK, GEQGSFFST [En_Gibbs] showed 3.42 (2 of 6 replicates; controls 0 of 18).
Variant GFSLNEYGIS, VIYSDGRRTFYSDSVK, GRAAGQFDS [GPLM_HC] showed nd (0 of 6 replicates; controls 0 of 18).
Variant GFTLWDYGIS, VIYEDGRRTQYIDSNK, GRAAGTFDI [Rand] showed nd (0 of 6 replicates; controls 0 of 18).
Variant GFTLNSYGIS, VIYSDGRRTFYADEVK, GEQAGTFDS [Ctrl] showed 0.63 (6 of 6 replicates; controls 0 of 18).
Variant GFDLNEYGIS, VIYADGRRTFYSDSVK, GQLAGTFDA [En_HC] showed -0.33 (6 of 6 replicates; controls 0 of 18).
Variant GYDLNSYGIS, VIYSDGRRTFHGDSVK, GRAAGWHNS [Rand] showed nd (0 of 6 replicates; controls 0 of 18).
Variant GFSLNEYGIS, VIYSDGRRTFYSDSVK, GRTAGTFDK [GP_Gibbs] showed -0.38 (6 of 6 replicates; controls 0 of 18).
Variant GFTLNSYGIS, VIYSDGRRTFYGDFVK, GRAAGTWDS [Ctrl] showed nd (0 of 6 replicates; controls 0 of 18).
Variant GFTLNSYGIS, VIYSDGRRTFYGDAVK, GEAAGTFDT [GP_Gibbs] showed 0.84 (6 of 6 replicates; controls 0 of 18).
Variant GFSLNMYGIS, VIYSDGRRTSYIDSVK, GRAAGTFDS [GP_HC] showed 0.50 (6 of 6 replicates; controls 2 of 18).
Variant GFDLNEYGIS, VIYADGKRTAYTDSVK, GEAAGTFDL [En_HC] showed -0.41 (6 of 6 replicates; controls 1 of 18).
Variant GFDLDEYGIS, VIYADGQRTAYADSVK, GETAGTFDI [En_Gen] showed 0.18 (6 of 6 replicates; controls 0 of 18).
Variant GFTLNSYGIS, VIYSDGRRTFYYDSVK, GTAAGTFDS [Ctrl] showed nd (0 of 6 replicates; controls 0 of 18).
Variant GFNLNEYGIS, VIYADGNRNAYADSVK, GLHANFFAI [En_Gibbs] showed nd (0 of 6 replicates; controls 0 of 18).
Variant GFDLNEYGIS, VIYADGKRMAYANKVK, GLMAGTMID [En_Gibbs] showed nd (0 of 6 replicates; controls 0 of 18).
Variant GFDLNEYGIS, VIYADGVRTAYADSVK, GQVAGTFDL [En_Gen] showed -0.53 (6 of 6 replicates; controls 0 of 18).
Variant GDSLNEYGIS, VIYADGNRSVYTDKVK, GHAGGTFMS [En_Gibbs] showed nd (0 of 6 replicates; controls 0 of 18).
Variant GFDLNEYGIS, VIYADGRRTFYSDSVK, GAVAGTFDS [En_HC] showed -0.52 (6 of 6 replicates; controls 1 of 18).
Variant GLTLNSYFIS, VIYSDGRRTAYGDFVK, GRAAGTFDS [Ctrl] showed nd (0 of 6 replicates; controls 0 of 18).
Variant SFDLNSYGIS, VIYSDGRRTFYADSVK, GRTAGTFDS [GP_Gen] showed -0.37 (6 of 6 replicates; controls 2 of 18).
Variant GFDLNSYGIS, VIYSDGKRTFYIDSVK, GRTAGTFDS [GP_Gen] showed 0.26 (4 of 6 replicates; controls 0 of 18).
Variant GFSLNEYGIS, VIYSDGRREFYGDSVK, GRAEGTFDS [Ctrl] showed 0.36 (6 of 6 replicates; controls 0 of 18).
Variant GFDLNEYGIS, VIYADGKRTAYIDSVK, GENAGTFDI [En_Gen] showed -0.26 (6 of 6 replicates; controls 0 of 18).
Variant GFNLNSYGIS, VIYSDGRRTFYADNVK, GNAAGTFDS [GP_Gen] showed 0.41 (6 of 6 replicates; controls 2 of 18).
Variant GADINEYGIS, VIYADGDRIAAQDDVK, GTNAGSFDI [En_Gibbs] showed nd (0 of 6 replicates; controls 0 of 18).
Variant GFTRNSYGIS, VIYSDGRRTIYGDSVK, GRAAGTFDS [Ctrl] showed nd (0 of 6 replicates; controls 0 of 18).
Variant GFDLDEYGIS, VIYADGIRQYYVDNVK, GLLAGMTIT [En_Gibbs] showed 4.20 (1 of 6 replicates; controls 1 of 18).
Variant GFELNSYGIS, VIYSDGRRTFYIDSVK, GSAAGTFDA [GP_Gibbs] showed 0.35 (6 of 6 replicates; controls 0 of 18).
Variant GFDLDEYGIS, VIYADGRRTAYSDSVK, GNNAGTFDV [En_Gen] showed -0.64 (6 of 6 replicates; controls 0 of 18).
Variant GFTLNEYGIS, VIYADGRRTFYGDSVK, GRAAGTFWS [GP_HC] showed 1.47 (1 of 6 replicates; controls 0 of 18).
Variant GEDLMEYGIS, VIYADGIRFSYIDDVK, GNSTGFLDV [En_Gibbs] showed nd (0 of 6 replicates; controls 0 of 18).
Variant GFDLNEYGIS, VIYADGLRTSYDDSVK, GQLAGTFDV [En_HC] showed -0.14 (6 of 6 replicates; controls 0 of 18).
Variant GFTLDSYGIS, VIYSDGRRTFYTDQVK, GRAAGTFDQ [Ctrl] showed 1.33 (3 of 6 replicates; controls 1 of 18).

The measurements come from Li et al. 2023 (doi:10.1038/s41467-023-39022-2) through the FLAb antibody collection.